{"source": "patent USRE47512E1", "about": "“Imidazole and imidazolium resins and methods for preparing curable imidazolium antimicrobial resins” (DENTSPLY SIRONA INC., priority 2011, dated 2019)", "assay": "Solubility of resins @ 37° C.", "format": "physicochemical", "conditions": "Table II", "data": [{"substance": "HEMA-based Monoimidazoliumbromide-dimethacrylate Resin [Example 4]", "values": [{"measurement": "Solubility @ 37° C. in EtOH", "setting": "EtOH", "value": "soluble"}, {"measurement": "Solubility @ 37° C. in water/ethanol (50:50, w/w %)", "setting": "water/ethanol 50:50", "value": "soluble"}]}]}
